In ChEMBL document CHEMBL3885861, “Open TG-GATES”:
Values joined by “and” are separate entries in the source; they are usually repeats but may differ in a detail not shown here. Equal values may be shown once.

Legend:
[1] = organism: Rattus norvegicus; test: Open TG-GATES - Regimen: Single; type: toxicity, organism-based, Sprague-Dawley; set-up: regimen Single, gender Male, age 6 weeks; settings: in vivo; for LIVER: iv, tissue Liver, route intravenous injection
[2] = organism: Rattus norvegicus; test: Open TG-GATES - Regimen: Daily Repeat; type: toxicity, organism-based, Sprague-Dawley; set-up: regimen Daily Repeat, gender Male, age 6 weeks; settings: in vivo, po, tissue Liver, route gavage
[3] = po, 0 mg/kg, 3 h, tissue Plasma, route gavage, dose level Control
[4] = po, 0 mg/kg, 6 h, tissue Plasma, route gavage, dose level Control
[5] = po, 0 mg/kg, 9 h, tissue Plasma, route gavage, dose level Control
[6] = po, 0 mg/kg, 24 h, tissue Plasma, route gavage, dose level Control
[7] = po, 0 mg/kg, 3 h, tissue Blood, route gavage, dose level Control
[8] = po, 0 mg/kg, 6 h, tissue Blood, route gavage, dose level Control
[9] = po, 0 mg/kg, 9 h, tissue Blood, route gavage, dose level Control
[10] = po, 0 mg/kg, 24 h, tissue Blood, route gavage, dose level Control
[11] = po, 200 mg/kg, 3 h, tissue Blood, route gavage, dose level Low
[12] = po, 200 mg/kg, 3 h, tissue Plasma, route gavage, dose level Low
[13] = po, 200 mg/kg, 6 h, tissue Blood, route gavage, dose level Low
[14] = po, 200 mg/kg, 6 h, tissue Plasma, route gavage, dose level Low
[15] = po, 200 mg/kg, 9 h, tissue Blood, route gavage, dose level Low
[16] = po, 200 mg/kg, 9 h, tissue Plasma, route gavage, dose level Low
[17] = po, 200 mg/kg, 24 h, tissue Blood, route gavage, dose level Low
[18] = po, 200 mg/kg, 24 h, tissue Plasma, route gavage, dose level Low
[19] = po, 600 mg/kg, 3 h, tissue Blood, route gavage, dose level Middle
[20] = po, 600 mg/kg, 3 h, tissue Plasma, route gavage, dose level Middle
[21] = po, 600 mg/kg, 6 h, tissue Blood, route gavage, dose level Middle
[22] = po, 600 mg/kg, 6 h, tissue Plasma, route gavage, dose level Middle
[23] = po, 600 mg/kg, 9 h, tissue Blood, route gavage, dose level Middle
[24] = po, 600 mg/kg, 9 h, tissue Plasma, route gavage, dose level Middle
[25] = po, 600 mg/kg, 24 h, tissue Blood, route gavage, dose level Middle
[26] = po, 600 mg/kg, 24 h, tissue Plasma, route gavage, dose level Middle
[27] = po, 2000 mg/kg, 3 h, tissue Blood, route gavage, dose level High
[28] = po, 2000 mg/kg, 3 h, tissue Plasma, route gavage, dose level High
[29] = po, 2000 mg/kg, 6 h, tissue Blood, route gavage, dose level High
[30] = po, 2000 mg/kg, 6 h, tissue Plasma, route gavage, dose level High
[31] = po, 2000 mg/kg, 9 h, tissue Blood, route gavage, dose level High
[32] = po, 2000 mg/kg, 9 h, tissue Plasma, route gavage, dose level High
[33] = po, 2000 mg/kg, 24 h, tissue Blood, route gavage, dose level High

CC(C)C[C@H](NC(=O)[C@H](Cc1ccccc1)NC(=O)c1cnccn1)B(O)O [BORTEZOMIB]
LIVER ([1]; 0 mg/kg, 3 h, dose level Control): 10.2 g
LIVER ([1]; 0 mg/kg, 6 h, dose level Control): 9.9 g
LIVER ([1]; 0 mg/kg, 9 h, dose level Control): 10 g
LIVER ([1]; 0 mg/kg, 24 h, dose level Control): 11.2 g
LIVER ([1]; 1 mg/kg, 3 h, dose level High): 11.1 g
LIVER ([1]; 1 mg/kg, 9 h, dose level High): 9.4 g

CCCCC1C(=O)N(c2ccccc2)N(c2ccccc2)C1=O [PHENYLBUTAZONE]
LIVER ([2]; 0 mg/kg, 72 h, dose level Control, time 3 day): 12.5 g
LIVER ([2]; 0 mg/kg, […], dose level Control, time 14 day): 14.5 g
LIVER ([2]; 0 mg/kg, […], dose level Control, time 28 day): 15.3 g
LIVER ([2]; 20 mg/kg, 72 h, dose level Low, time 3 day): 11.6 g
LIVER ([2]; 20 mg/kg, […], dose level Low, time 7 day): 13.1 g
LIVER ([2]; 20 mg/kg, […], dose level Low, time 14 day): 15.3 g
LIVER ([2]; 20 mg/kg, […], dose level Low, time 28 day): 16.4 g
LIVER ([2]; 60 mg/kg, 72 h, dose level Middle, time 3 day): 12.3 g
LIVER ([2]; 60 mg/kg, […], dose level Middle, time 7 day): 13.6 g
LIVER ([2]; 60 mg/kg, […], dose level Middle, time 14 day): 14.4 g
LIVER ([2]; 60 mg/kg, […], dose level Middle, time 28 day): 19.3 g
LIVER ([2]; 200 mg/kg, 72 h, dose level High, time 3 day): 12.9 g
LIVER ([2]; 200 mg/kg, […], dose level High, time 7 day): 13.9 g
LIVER ([2]; 200 mg/kg, […], dose level High, time 14 day): 15.5 g
LIVER ([2]; 200 mg/kg, […], dose level High, time 28 day): 16.2 g

O=P1(N(CCCl)CCCl)NCCCO1 (stereo not drawn) [CYCLOPHOSPHAMIDE ANHYDROUS]
TG [1, 3]: 42.6 mg/dL and 56.6 mg/dL
TG [1, 4]: 51.6 mg/dL and 65.2 mg/dL
TG [1, 5]: 52 mg/dL and 39.8 mg/dL
TG [1, 6]: 113.2 mg/dL and 99.8 mg/dL
TG ([1]; po, 2 mg/kg, 3 h, tissue Plasma, route gavage, dose level Low): 62.6 mg/dL
TG ([1]; po, 2 mg/kg, 6 h, tissue Plasma, route gavage, dose level Low): 60 mg/dL
TG ([1]; po, 2 mg/kg, 9 h, tissue Plasma, route gavage, dose level Low): 57.8 mg/dL
TG ([1]; po, 2 mg/kg, 24 h, tissue Plasma, route gavage, dose level Low): 102.8 mg/dL
TG ([1]; po, 5 mg/kg, 3 h, tissue Plasma, route gavage, dose level Middle): 40.4 mg/dL
TG ([1]; po, 5 mg/kg, 6 h, tissue Plasma, route gavage, dose level Middle): 70.4 mg/dL
TG ([1]; po, 5 mg/kg, 24 h, tissue Plasma, route gavage, dose level Middle): 119 mg/dL
TG ([1]; po, 15 mg/kg, 3 h, tissue Plasma, route gavage, dose level High): 70.4 mg/dL
TG ([1]; po, 15 mg/kg, 3 h, tissue Plasma, route gavage, dose level Low): 71.4 mg/dL
TG ([1]; po, 15 mg/kg, 6 h, tissue Plasma, route gavage, dose level High): 54.4 mg/dL
TG ([1]; po, 15 mg/kg, 6 h, tissue Plasma, route gavage, dose level Low): 41.2 mg/dL
TG ([1]; po, 15 mg/kg, 9 h, tissue Plasma, route gavage, dose level High): 31.4 mg/dL
TG ([1]; po, 15 mg/kg, 9 h, tissue Plasma, route gavage, dose level Low): 38.4 mg/dL
TG ([1]; po, 15 mg/kg, 24 h, tissue Plasma, route gavage, dose level High): 69.8 mg/dL
TG ([1]; po, 15 mg/kg, 24 h, tissue Plasma, route gavage, dose level Low): 83.8 mg/dL
TG ([1]; po, 50 mg/kg, 3 h, tissue Plasma, route gavage, dose level Middle): 78.4 mg/dL
TG ([1]; po, 50 mg/kg, 6 h, tissue Plasma, route gavage, dose level Middle): 48.8 mg/dL
TG ([1]; po, 50 mg/kg, 9 h, tissue Plasma, route gavage, dose level Middle): 19.4 mg/dL
TG ([1]; po, 50 mg/kg, 24 h, tissue Plasma, route gavage, dose level Middle): 58.8 mg/dL
TG ([1]; po, 150 mg/kg, 3 h, tissue Plasma, route gavage, dose level High): 44 mg/dL
TG ([1]; po, 150 mg/kg, 6 h, tissue Plasma, route gavage, dose level High): 28 mg/dL
TG ([1]; po, 150 mg/kg, 9 h, tissue Plasma, route gavage, dose level High): 31.2 mg/dL
TG ([1]; po, 150 mg/kg, 24 h, tissue Plasma, route gavage, dose level High): 45.4 mg/dL

COc1cc2ncnc(Nc3ccc(F)c(Cl)c3)c2cc1OCCCN1CCOCC1 [GEFITINIB]
Hb [1, 7]: 13.1 g/dL
MCHC [1, 7]: 33.1%
Plat [1, 7]: 107.4 x10_4/uL
WBC [1, 7]: 95.3 x10_2/uL
BUN [1, 3]: 13 mg/dL
Hb [1, 8]: 13.4 g/dL
MCHC [1, 8]: 33.2%
MCV [1, 8]: 64.5 fL
Plat [1, 8]: 111.8 x10_4/uL
BUN [1, 4]: 11.3 mg/dL
GLC [1, 4]: 188.4 mg/dL
Hb [1, 9]: 12.8 g/dL
MCHC [1, 9]: 33.2%
MCV [1, 9]: 64.1 fL
Plat [1, 9]: 116.7 x10_4/uL
BUN [1, 5]: 12.3 mg/dL
Hb [1, 10]: 12.9 g/dL
MCV [1, 10]: 64.4 fL
Plat [1, 10]: 129 x10_4/uL
WBC [1, 10]: 91.8 x10_2/uL
ALP [1, 6]: 1878 IU/L
BUN [1, 6]: 16 mg/dL
GLC [1, 6]: 184 mg/dL
Hb [1, 11]: 12.1 g/dL
MCHC [1, 11]: 33.5%
MCV [1, 11]: 62.6 fL
Plat [1, 11]: 124.9 x10_4/uL
WBC [1, 11]: 97.4 x10_2/uL
BUN [1, 12]: 13.5 mg/dL
GLC [1, 12]: 199.4 mg/dL
MCHC [1, 13]: 33.4%
MCV [1, 13]: 64.6 fL
Plat [1, 13]: 110.8 x10_4/uL
WBC [1, 13]: 84.7 x10_2/uL
BUN [1, 14]: 11.2 mg/dL
GLC [1, 14]: 194.6 mg/dL
Hb [1, 15]: 12.8 g/dL
MCHC [1, 15]: 33.1%
Plat [1, 15]: 132.5 x10_4/uL
WBC [1, 15]: 78.8 x10_2/uL
GLC [1, 16]: 178.2 mg/dL
LDH [1, 16]: 188.4 IU/L
Hb [1, 17]: 13.1 g/dL
MCHC [1, 17]: 32.1%
MCV [1, 17]: 64.1 fL
Plat [1, 17]: 117 x10_4/uL
WBC [1, 17]: 127.3 x10_2/uL
BUN [1, 18]: 17.7 mg/dL
GLC [1, 18]: 177.6 mg/dL
MCHC [1, 19]: 33.5%
MCV [1, 19]: 63 fL
Plat [1, 19]: 107.8 x10_4/uL
WBC [1, 19]: 86.6 x10_2/uL
BUN [1, 20]: 12.6 mg/dL
GLC [1, 20]: 189.2 mg/dL
Hb [1, 21]: 12.2 g/dL
MCHC [1, 21]: 33.5%
MCV [1, 21]: 62.9 fL
WBC [1, 21]: 93.2 x10_2/uL
BUN [1, 22]: 13 mg/dL
GLC [1, 22]: 193 mg/dL
Hb [1, 23]: 12.3 g/dL
MCHC [1, 23]: 33.5%
MCV [1, 23]: 63 fL
Plat [1, 23]: 109.8 x10_4/uL
WBC [1, 23]: 87.1 x10_2/uL
BUN [1, 24]: 11.6 mg/dL
GLC [1, 24]: 182.2 mg/dL
Hb [1, 25]: 12.9 g/dL
MCV [1, 25]: 64.1 fL
Plat [1, 25]: 119.7 x10_4/uL
BUN [1, 26]: 15.2 mg/dL
GLC [1, 26]: 174.6 mg/dL
Hb [1, 27]: 12.6 g/dL
MCHC [1, 27]: 33.8%
MCV [1, 27]: 63 fL
Plat [1, 27]: 116 x10_4/uL
WBC [1, 27]: 81.9 x10_2/uL
BUN [1, 28]: 14.8 mg/dL
GLC [1, 28]: 210 mg/dL
Hb [1, 29]: 12.5 g/dL
MCHC [1, 29]: 33.5%
MCV [1, 29]: 63.4 fL
Neu [1, 29]: 18.8%
Plat [1, 29]: 112.9 x10_4/uL
WBC [1, 29]: 94.7 x10_2/uL
BUN [1, 30]: 11.4 mg/dL
GLC [1, 30]: 189.4 mg/dL
Hb [1, 31]: 12.5 g/dL
MCHC [1, 31]: 33.4%
MCV [1, 31]: 63 fL
Plat [1, 31]: 110.9 x10_4/uL
WBC [1, 31]: 80.9 x10_2/uL
BUN [1, 32]: 10.8 mg/dL
GLC [1, 32]: 192.6 mg/dL
Hb [1, 33]: 13.2 g/dL
MCHC [1, 33]: 32.6%
MCV [1, 33]: 64.3 fL
WBC [1, 33]: 81.8 x10_2/uL
GLC ([1]; po, 2000 mg/kg, 24 h, tissue Plasma, route gavage, dose level High): 182.5 mg/dL
